Experimental findings from PubChem BioAssay AID602346 (Broad Institute, 2012) are described below.

Each structure is given as a SMILES string. Only a part is listed here, and it is no random draw. Calls of active or inactive are those of the source. Rule as the data show it: active = inhibition above about 50% (passing the limit was not always enough); inconclusive = no clear call, values can overlap the other calls; inactive = below about 31%.

The assay is described as follows: blockers of Vif multimerization in cells – imaging, HEK293T, single point, primary screen (AID 602346). As to conditions: Vif self-association by quenched fluorescence, 24 h, at 7.49 µM, stronger effect = higher value.
A word on the inhibition: it is the drop in the measured response relative to a control, in per cent. On to `CC1=NCCc2c1[nH]c1ccccc21.O=[N+]([O-])c1cc([N+](=O)[O-])c(O)c([N+](=O)[O-])c1`, for which the inhibition is inactive: -4.21%. For `O=C(O)c1cccc(Nc2c([N+](=O)[O-])cc([N+](=O)[O-])cc2[N+](=O)[O-])c1` the value was inactive: 4.66%; for `Cc1ccc(C)c(NP(C)(=O)Oc2ccccc2)c1` (configuration not stated), inactive: -8.73%.

On to `Cc1cc(C)cc(OP(C)(=O)Nc2ccccn2)c1` (configuration not stated), for which the inhibition is inactive: -6%. For `CP(=O)(Nc1cccc(Br)c1)Oc1ccccc1` (configuration not stated) the value was inactive: 2.63%. As for `COc1ccccc1OP(C)(=O)Nc1cccc(Br)c1` (configuration not stated), the figure is inactive: -0.885%; as for `CCOC(=O)c1ccc(NP(C)(=O)Oc2cc(C)cc(C)c2)cc1` (configuration not stated), inactive: -5.9%; as for `Cc1cc(C)cc(OP(C)(=O)Nc2ccc(C)cc2C)c1` (configuration not stated), inactive: -4.6%. As for `O=[N+]([O-])c1cc([N+](=O)[O-])c(-c2cnn(-c3ccccc3)c2)c([N+](=O)[O-])c1`, the figure is inactive: -16.5%. For the compound `Cc1nc2ccc3ccccc3c2s1.O=[N+]([O-])c1cc([N+](=O)[O-])c(O)c([N+](=O)[O-])c1`, the inhibition is inactive: 3.18%.

With `O=[N+]([O-])c1cc([N+](=O)[O-])c(-n2nnc3ccccc32)c([N+](=O)[O-])c1`, the inhibition was inactive: -7.98%. As for `COc1ccccc1OP(C)(=O)Nc1c(C)cccc1C` (configuration not stated), the figure is inactive: -2.99%; as for `CN1CCCCC1COC(=O)C1(O)c2ccccc2CCc2ccccc21` (configuration not stated), inactive: -12.6%. For `CCCOc1ccc(NP(C)(=O)Oc2ccc(Cl)cc2)cc1` (configuration not stated) the value was inactive: -3.57%. As for `CC1=C2N=C(C=C3N=C(C(C)=C4[N-][C@@](C)([C@@H]5N=C1[C@](C)(CCC(=O)NC[C@@H](C)OP(=O)([O-])O[C@H]1[C@@H](O)[C@@H](n6cnc7cc(C)c(C)cc76)O[C@@H]1CO)[C@H]5CC(N)=O)[C@@](C)(CC(N)=O)[C@@H]4CCC(N)=O)[C@@](C)(CC(N)=O)[C@@H]3CCC(N)=O)C(C)(C)[C@@H]2CCC(N)=O.[C-]#N.[Co+3]`, the figure is inactive: -4.57%; as for `O=[N+]([O-])c1cc([N+](=O)[O-])c(Nc2nnnn2CCO)c([N+](=O)[O-])c1`, inactive: -3.01%. Regarding `CCOC(=O)C(CC)C1=NC(C)(C)Cc2ccccc21.O=[N+]([O-])c1cc([N+](=O)[O-])c(O)c([N+](=O)[O-])c1` (configuration not stated), the inhibition is inactive: 2.35%. As for `CP(=S)(Nn1cnnc1)Oc1ccccc1` (configuration not stated), the figure is inactive: 8.41%. Consider `CP(=O)(Nc1ccccc1Br)Oc1ccccc1` (configuration not stated), for which the inhibition is inactive: 3.8%. For the compound `COc1ccccc1OP(C)(=O)Nc1ccccc1` (configuration not stated), the inhibition was inactive: 9.31%.

Take `CCOC(=O)c1ccc(NP(C)(=O)Oc2ccc(OC)cc2)cc1` (configuration not stated): the inhibition was inactive: -8.56%. For `O=[N+]([O-])c1cc([N+](=O)[O-])c(O)c([N+](=O)[O-])c1.c1ccc(Oc2ccncc2)cc1`, the inhibition was inactive: -1.19%. For `CCOP(C)(=S)SCC(=O)NC(C)C(=O)O` (configuration not stated), the inhibition is inactive: 18.7%.

`CP(=O)(Nc1ccccn1)Oc1ccc(Cl)cc1` (configuration not stated): the inhibition was inactive: 4.38%. For `Cc1ccc(Nc2c([N+](=O)[O-])cc([N+](=O)[O-])cc2[N+](=O)[O-])cc1`, the inhibition is inactive: -0.254%. `Cc1cccc(C)c1OP(C)(=O)Nc1ccc(SC(F)(F)F)cc1` (configuration not stated): the inhibition was inactive: -3.09%.

Take `CP(=O)(Nc1ccc(SC(F)(F)F)cc1)Oc1ccc(Cl)cc1` (configuration not stated): the inhibition is inactive: -8.69%. For `CP(=O)(Oc1ccccc1)OC(c1ccccc1)C(F)(F)F` (configuration not stated) the value was inactive: -3.29%. For `CP(=O)(NC(=O)Nc1ccccc1)Oc1ccccc1` (configuration not stated) the value was inactive: 2.79%; for `CCc1ccc(OP(C)(=O)N2CCN(c3ccc([N+](=O)[O-])cc3)CC2)cc1` (configuration not stated), inactive: -2.25%. As for `CCN(CC)CCCOC(=O)C(O)(c1ccccc1)c1ccccc1`, the figure is inactive: -2.34%; as for `COc1ccccc1OP(C)(=O)Nc1ccc(C)cc1` (configuration not stated), inactive: -5.41%; as for `CCOC(=O)c1ccc(NP(C)(=O)Oc2ccccc2)cc1` (configuration not stated), inactive: -17.8%.

As to `Cc1cc(C)cc(OP(C)(N)=O)c1` (configuration not stated), the inhibition is inactive: -0.51%. As for `COc1ccccc1OP(C)(=O)Nc1cc(Cl)ccc1C` (configuration not stated), the figure is inactive: -0.414%. As for `COc1ccc(OP(C)(=O)Nc2cccc(F)c2)cc1` (configuration not stated), the inhibition was inactive: 3.33%. `O=[N+]([O-])c1cc([N+](=O)[O-])c(Nc2cccnc2)c([N+](=O)[O-])c1`: the inhibition is inactive: -4.58%. As for `O=[N+]([O-])c1ccc2c(c1)C=Nc1ccccc1O2`, the figure is inactive: -0.973%. For `CC(C)(C)c1ccc(OP(C)(=O)Nc2ccc(SC(F)(F)F)cc2)cc1` (configuration not stated) the value was inactive: -0.952%. As for `Cc1cccc(C)c1OP(C)(N)=O` (configuration not stated), the figure is inactive: -2.69%; as for `CP(=O)(Nc1ccc(Cl)cc1Cl)Oc1ccccc1` (configuration not stated), inactive: -11.9%; as for `CCCCCCCCCCCCCCCC1C[N+](C)(C)CCOP(C)(=O)O1` (configuration not stated), inactive: 2.59%. For the compound `CP(=O)(OCCOc1ccccc1)OCCOc1ccccc1`, the inhibition was inactive: 1.4%. For `O=C1C(O)=C([N+](=O)[O-])C(=O)C(O)=C1[N+](=O)[O-]` the value was inactive: 7.92%; for `Cc1cc(C)cc(OP(C)(=O)Nc2cccc(C(F)(F)F)c2)c1` (configuration not stated), inactive: -0.199%; for `COc1ccccc1OP(C)(=O)Nc1ccc(C)c(C)c1` (configuration not stated), inactive: -16.5%. For `COc1ccc(OP(C)(=O)Nc2ccccc2Br)cc1` (configuration not stated), the inhibition is inactive: -1.32%. For `Cc1c(NP(C)(=O)Oc2ccc(C(C)C)cc2)c(=O)n(-c2ccccc2)n1C` (configuration not stated) the value was inactive: -2.51%; for `O=[N+]([O-])c1cc([N+](=O)[O-])c(Nc2ccccn2)c([N+](=O)[O-])c1`, inactive: -5.3%. For `CP(=O)(Nc1ccccn1)Oc1ccccc1` (configuration not stated) the value was inactive: 3.04%; for `COc1ccccc1OP(C)(=O)Nc1ccc(C)cc1C` (configuration not stated), inactive: -5.57%. As for `CCc1ccc(OP(C)(=O)O)cc1`, the figure is inactive: -9.93%; as for `COc1ccccc1OP(C)(=O)Nc1ccc(Br)cc1` (configuration not stated), inactive: -4.03%; as for `COc1ccc(OP(C)(=O)Nc2ccccn2)cc1` (configuration not stated), inactive: -4.79%. Consider `CN(C)CCOC(=O)C(O)(c1ccccc1)C1CCCC1` (configuration not stated), for which the inhibition was inactive: 0.718%. For `COc1ccccc1OP(C)(=O)Nc1ccccc1Br` (configuration not stated) the value was inactive: -5.65%. As for `CC(C)(C)c1ccc(OP(C)(=O)O)cc1`, the figure is inactive: 7.94%.
